Literature values, collected in publication PMC6273584, “Synthesis of Thiazolo[5,4-f]quinazolin-9(8H)-ones as Multi-Target Directed Ligands of Ser/Thr Kinases” (Molecules, 2016).

How the values were obtained:
GSK-3 = conditions: Figure 2, earlier work, cited from earlier work
CDK1 = tested on: CDK1; parameters: method as in PMID 17981370, PMID 16644220; conditions: Figure 2; earlier work; cited from earlier work

| Compound | GSK-3 IC50 (GSK-3) | IC50 (GSK-3; read-out: GSK-3 IC50) | CDK1 IC50 (CDK1) | IC50 (CDK1) |
| --- | --- | --- | --- | --- |
| CCn1cnc2ccc3nc(C(=N)OCc4ccccc4)sc3c2c1=O [II] | micromolar range | 170 nM |  |  |
| CC(C)n1cnc2ccc3nc(C(=N)OCc4ccccc4)sc3c2c1=O [I] |  |  | micromolar range | 150 nM |
